Protein sequences, listed by entry. Tags and fused reporters are not part of them. Lines headed by an entry give the natural chain unless they say otherwise; changes in a name come on top.
UniProt P30680: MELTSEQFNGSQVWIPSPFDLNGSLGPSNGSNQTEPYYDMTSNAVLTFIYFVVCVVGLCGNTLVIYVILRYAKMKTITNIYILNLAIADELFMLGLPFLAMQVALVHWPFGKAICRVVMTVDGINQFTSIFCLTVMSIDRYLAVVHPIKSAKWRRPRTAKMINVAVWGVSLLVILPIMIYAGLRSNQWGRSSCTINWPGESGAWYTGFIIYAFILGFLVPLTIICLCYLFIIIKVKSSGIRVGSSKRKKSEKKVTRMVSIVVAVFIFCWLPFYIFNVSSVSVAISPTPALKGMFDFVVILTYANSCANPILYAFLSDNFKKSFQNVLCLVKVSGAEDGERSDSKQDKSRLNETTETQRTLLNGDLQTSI

In US7326685B2, “Diagnostic or therapeutic somatostatin or bombesin analog conjugates and uses thereof” (The Administrators of the Tulane Educational Fund, priority 2001, dated 2008):

Tests used:
[1] = target: GH release from primary cultures of rat pituitary cells (somatostatin subtype 2 rat receptor related system) (Rattus norvegicus, UniProt P30680); experiment: Inhibition of GH release from primary cultures of rat pituitary cells; type: cell-based; details: GH stimulated with 1 nM GRH(1-29)NH2, 3 h
Description: This is a primary system for evaluating SRIF analog potency and can be considered a somatostatin subtype 2 rat receptor related system which historically also correlates well with human subtype 2 binding.
Anterior pituitaries from adult male rats weighing 200-250 g and housed under controlled conditions (lights on from 0500-1900 h), are dispersed using aseptic techniques by a trypsin/DNase method. The dispersed cells are diluted with sterile-filtered Dulbecco's modified Eagle medium (MEM) (Gibco Laboratories, Grand Island, N.Y. (GIBCO)), which is supplemented with 2.5% fetal calf serum (GIBCO), 3% horse serum (GIBCO), 10% fresh rat serum (stored on ice for no longer than 1 h) from the pituitary donors, 1% MEM nonessential amino acids (GIBCO), gentamycin (10 ng/ml; Sigma), and nystatin (10,000 U/ml; GIBCO). The cells are counted with a hemacytometer (approximately 2,000,000 cells per pituitary) and randomly plated at a density of 200,000 cells per well (Co-star cluster 24; Rochester Scientific Co., Rochester, N.Y.). […]
In preparation for a hormone challenge, the cells are washed 3× with medium 199 (GIBCO) to remove old medium and floating cells. […] GH in plasma and media is measured by a standard double antibody RIA using components supplied by the NIDDK and the National Hormone and Pituitary Program.

[2] = Biodistribution of 125I-labeled peptides in rats; details: 125I-labeled peptide, intraperitoneal, 24 hours

Substance: Succinate-D-Asp-D-Ser-D-Ser-D-Ser-D-Ser-D-Ser-D-Asp-D-Ser-D-Ser-D-Ser-D-Ser-D-Ser-L-Lys-D-Tyr-D-Tyr-cyclo[L-Cys-L-Phe-D-Trp-L-Lys-L-Thr-L-Cys]-L-Thr-NH2 [JF-08-73]
- IC50 [1]: 0.51 nM
- Accumulation of radioactivity in normal tissue including liver (FIG. 2) [2]: lack of accumulation
- Elimination of labeled peptide in urine and feces (FIG. 2) [2]: rapid and high efficiency elimination
